Earlier results as cited in patent publication US12070523B2, “Sanitization of an article using in situ electrolysis” (APPLIED BIOCIDE GMBH, priority 2022, dated 2024).
Read-outs that look alike come from different tables or passages of the source.

[O-][Cl+2]([O-])O [chlorate]
Arfd (acute reference dose) (as ClO3^−): 0.0024 mg/kg BW·day | ADI (allowable daily intake) (as NaClO3): 0.003 mg/kg BW·day | Arfd (acute reference dose) (as NaClO3): 0.003 mg/kg BW·day
